Screens deposited in PubChem by National Center for Advancing Translational Sciences (NCATS).
Hits are enriched below; roughly 0.43% of the tested compounds scored in any of these assays.
B2AR arrestin: qHTS assay of beta-arrestin-biased ligands of beta2-adrenergic receptor. actives 0.02% (n = 330,000). Beta-2 adrenergic receptor (Homo sapiens), P07550. Potency, µM (series often up to 46.1 µM), without a hit: top-dose activation, actives largely listed as activators. beta-arrestin recruitment to beta2AR, cell-based reporter;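 note: potency is the fitted concentration of half-maximal effect; 0% = DMSO controls and full agonism = EC100 isoproterenol or metaproterenol; nearly all actives have a fitted effect of over 65% in size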
Rango complex inh: qHTS Assay for Inhibitors of Rango (Ran-regulated importin-beta cargo) - Importin beta complex formation; actives 0.031% (n = 340,000); AID 540263, 2011; Importin subunit beta-1 (Homo sapiens), Q14974; Potency, µM (doses to about 92.2 µM), inactives show top-dose inhibition of complex formation; Rango CFP/YFP FRET sensor + importin beta, 45 min; calls by dose curve;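 note: potency is the fitted concentration of half-maximal effect; 0% = DMSO wells and 100% = buffer wells lacking importin beta; nearly all actives have a fitted effect of over 15% in size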
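FRET biosensor Rango (snurportin 1 IBB between N-terminal EYFP and C-terminal Cerulean), 50 nM in PBS/1 mM DTT/0.02% Tween-20/0.1% BSA, preincubated 5 min RT with compound; 0.125 microM importin beta added, 45 min RT, CFP/YFP FRET ratio read.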
Rango release inh: qHTS Assay for Inhibitors of RanGTP induced Rango (Ran-regulated importin-beta cargo) - Importin beta complex dissociation; actives 0.071% (n = 340,000); Biochemical FRET Rango-importin beta, RanGTP-induced dissociation; AID 540253, 2011; Potency, µM (highest dose often 46.1 µM), inactives show at the top dose activity change, negative = inhibition; calls by dose curve; note: potency is the fitted concentration of half-maximal effect; % of control where 0% means no effect; nearly all actives have a fitted effect of over 45% in size
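Rango FRET biosensor (snurportin-1 IBB flanked by N-terminal EYFP and C-terminal CFP10) at 0.1 uM, with 0.25 uM importin beta in PBS, 1mM DTT, 0.02% Tween-20, 0.1% BSA. 0.6 uM Ran, 2mM GTP and 0.2 uM RCC1 were then added for 45 min at room temperature. Inhibition read as loss of FRET rise.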
CCT chaperon mod: High-Throughput Screening for Modulators of Cytosolic Chaperonin Activity | purified chaperonin ATPase assay, HTRF ADP detection, 30 min | activity change, % (no concentration beside the values), hits read low | actives 0.3% (n = 360,000) | AID 651819, 2012; in the data active = activity change below about -30%; note: % is set by controls: 0 for no effect and ±100 for the full control effect
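We incubate TRiC, 40 or 20 nM final, with library compounds at 76 uM and 10 uM ATP for 30 min at 37 °C. ADP formed is detected with Transcreener HTRF reagents after 30 min at room temperature.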
MmCpn inh: Inhibitors of TCP-1 ring complex (TRiC) of Methanococcus maripaludis (MmCpn): qHTS; Chaperonin Mm-Cpn (Methanococcus maripaludis); purified Mm-Cpn ATPase, ADP Transcreener TR-FRET; Potency, µM (titrated, usually from 76.9 µM), inactives show top-dose activity, negative = inhibition, most hits filed as inhibitors; actives 0.031% (n = 330,000); note: potency is the fitted concentration of half-maximal effect; % is set by controls: 0 for no effect and ±100 for the full control effect; nearly all actives have a fitted effect of over 80% in size
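Quantitative HTS used 25 nM Mm-CPN and 10 uM ATP in magnesium/KCl Tris buffer, pH 7.4, with 1 mM DTT. Hydrolysis ran 30 min at 37°C; ADP was read by HTRF.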
* = called active by the depositor; ? = inconclusive; . = no result; ! = a repeat was not active; [ ] = dose if it differs, or a comment. Unless noted, calls come from the whole dose curve; as a rule, active = well fitted curve in the direction sought with a large enough effect; inconclusive = small, poorly fitted or top-dose-only effect, or another doubt; inactive = no such curve, though single readings can be large; an effect the other way counts as inactive or inconclusive.

By UniProt entry, the sequences of proteins in these tests, tags left out.
Importin subunit beta-1 (Homo sapiens), Q14974, UniProt Q14974, whole entry, looked up: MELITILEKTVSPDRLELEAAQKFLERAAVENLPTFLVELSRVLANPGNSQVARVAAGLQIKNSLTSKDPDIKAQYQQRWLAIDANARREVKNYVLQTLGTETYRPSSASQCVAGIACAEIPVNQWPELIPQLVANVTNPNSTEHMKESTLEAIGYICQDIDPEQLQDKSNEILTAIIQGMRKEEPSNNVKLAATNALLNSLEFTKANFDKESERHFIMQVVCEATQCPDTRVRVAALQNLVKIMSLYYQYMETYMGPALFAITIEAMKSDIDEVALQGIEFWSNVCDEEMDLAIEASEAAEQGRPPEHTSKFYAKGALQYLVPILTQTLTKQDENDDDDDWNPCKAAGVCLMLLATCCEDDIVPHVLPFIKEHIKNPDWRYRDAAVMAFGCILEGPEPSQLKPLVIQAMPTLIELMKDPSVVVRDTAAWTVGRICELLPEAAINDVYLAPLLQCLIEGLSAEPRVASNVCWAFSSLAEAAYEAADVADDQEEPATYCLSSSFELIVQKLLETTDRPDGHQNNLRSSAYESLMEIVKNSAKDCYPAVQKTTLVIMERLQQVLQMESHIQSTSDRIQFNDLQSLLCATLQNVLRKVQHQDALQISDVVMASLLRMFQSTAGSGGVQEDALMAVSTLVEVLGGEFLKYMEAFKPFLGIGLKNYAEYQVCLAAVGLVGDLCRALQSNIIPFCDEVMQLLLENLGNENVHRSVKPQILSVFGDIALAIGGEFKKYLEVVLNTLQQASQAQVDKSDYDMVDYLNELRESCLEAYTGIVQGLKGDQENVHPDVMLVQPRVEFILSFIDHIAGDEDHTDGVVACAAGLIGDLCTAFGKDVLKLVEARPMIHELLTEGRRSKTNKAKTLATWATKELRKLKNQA

cpd | B2AR arrestin | Rango complex inh | Rango release inh | CCT chaperon mod | MmCpn inh | Compound
1 | -0.2% | 2.5% | -3.1% | 0.9 | 1.6% | O=C(Nc1ccc2c(c1)OCO2)c1c[nH]c(=O)n(-c2ccc(F)cc2)c1=O
2 | -0.2% | ? | 13µM* | 0.3 | -5.5% | Nc1nc(Br)c2ccccc2c1-c1ccccc1
3 | -0.6% | 0.0% | 4.2% | -4.9 | -4.0% | Nc1nc(Br)c2c(F)cccc2c1-c1ccc(Cl)cc1
4 | . | . | . | -0.3 | . | N#Cc1cccc(NC(=O)c2cc(C3CCCCN3S(=O)(=O)c3cccc4cccnc34)on2)c1 (centres undefined)
5 | -0.1% | 0.9% | -18.1% | -38.4* | 1.7% | CCOc1ccc(S(=O)(=O)Nc2ccc(O)c(Sc3ncn[nH]3)c2)cc1
6 | -0.3% | 2.4% | 23.3% | -0.4 | 1.3% | CCc1ccc(N2CC(C(=O)Nc3ccc4c(c3)OCO4)CC2=O)cc1 (centres undefined)
7 | -0.2% | -0.6% | -10.3% | -62.2* | 0.1% | CN1C=CC=C/C1=C1/SC(=S)N(Cc2ccccc2)C1=O
8 | 0.3% | -0.6% | -5.8% | 0.3 | -2.2% | CCOC(=O)c1cnc(SCC(=O)c2ccccc2)nc1N

Compound profiles (already shown). Order of values: B2AR arrestin	Rango complex inh	Rango release inh	CCT chaperon mod	MmCpn inh
`CCc1ccc(N2CC(C(=O)Nc3ccc4c(c3)OCO4)CC2=O)cc1` (centres undefined) as listed: -0.3%	2.4%	23.3%	-0.4	1.3%
`CN1C=CC=C/C1=C1/SC(=S)N(Cc2ccccc2)C1=O` as listed: -0.2%	-0.6%	-10.3%	-62.2*	0.1%

New compounds follow:
cpd | B2AR arrestin | Rango complex inh | Rango release inh | CCT chaperon mod | MmCpn inh | Compound
9 | . | . | . | 0.0 | . | CC1CCN(C(=O)c2ncn3c2c(=O)[nH]c2cccnc23)CC1
10 | -0.1% | -1.0% | 1.9% | 2.2 | -0.6% | CCCn1c(CCc2ccccc2)nnc1SCC(=O)N1CCCC1
11 | 0.2% | 1.6% | 5.7% | -46.7* | 0.6% | CCCc1nnc(SCC(=O)N2CCCC2)n1Cc1ccco1
12 | -0.1% | -0.1% | -0.2% | -2.5 | 0.3% | CCCCC(OC(=O)c1ccco1)C(=O)NCc1ccc(C)cc1 (centres undefined)
13 | 6.51µM* | -1.2% | 20.8% | 0.1 | -1.1% | CC(C)(NC(=O)NC(CO)c1ccccc1)c1cccc(C(C)(C)NC(=O)NC(CO)c2ccccc2)c1 (centres undefined)
14 | -0.1% | 2.8% | 3.9% | -0.3 | 0.6% | CCC(CC)c1nnc(NC(=O)CCNC(=O)c2ccccc2Cl)s1
15 | 0.4% | -1.1% | 2.0% | 2.7 | 0.5% | COC(=O)COc1ccc(NS(=O)(=O)c2cccc([N+](=O)[O-])c2)cc1
16 | -0.2% | 29.1µM* | 20.2% | -0.7 | 1.7% | CC(=O)c1ccc(NC(=O)CN2C(=O)/C(=C/C=C/c3ccccc3)SC2=S)cc1
17 | -0.4% | 1.3% | -20.0% | 0.6 | -0.3% | O=C(O)CN1C(=O)/C(=C/C=C/c2ccccc2)SC1=S
18 | -0.8% | ? | 5.8% | 0.2 | 50.1µM* | COc1ccc(-c2csc(NC(=O)c3ccc(S(=O)(=O)N4CCc5ccccc5C4)cc3)n2)c(OC)c1
19 | -2.1% | 0.1% | -13.2% | -0.6 | ? | CCOc1ccc(-c2csc(NC(=O)c3ccc(S(=O)(=O)N4CCc5ccccc5C4)cc3)n2)cc1
20 | -0.2% | -0.1% | -13.7% | -30.7* | ? | N/C(=N\OC(=O)c1ccccc1)c1ccn[nH]1
21 | 0.5% | 0.4% | 1.8% | -0.1 | -2.1% | N/C(=N\OC(=O)c1ccccc1)c1cccnc1
22 | 6.8% | 4.1% | -3.6% | -59.9* | -0.6% | COC(=O)[C@@]1(Cc2ccccc2)[C@H]2C(=O)N(C)C(=O)[C@H]2[C@H]2CN=C(SCc3ccc(C)cc3)N21
23 | -0.4% | 0.5% | 36.4% | -2.6 | 44.7µM* | COc1ccc(CN(Cc2cccn2C)C(=O)c2cc3cc(OC)ccc3[nH]2)cc1
24 | 0.4% | ? | ? | -69.6* | -13.7% | C(=N\NC1=Nc2cccc3cccc1c23)/c1cccnc1
25 | -0.7% | -0.1% | -9.9% | -95.1* | 1.7% | Cc1ccc(-c2csc3ncnc(-n4nc(C)cc4N)c23)cc1
26 | . | . | . | -42.6* | . | COc1ccc([C@H]2CN(CCc3ccccc3)C(=O)[C@@H]2CC(=O)Nc2ccccc2)cc1
27 | -1.8% | ? | 4.61µM* | -50.4* | 0.5% | O=C(CCCCCn1c(=S)[nH]c2ccc(N3CCOCC3)cc2c1=O)NCc1cccc(Cl)c1
28 | -1.0% | 5.2% | -7.2% | -51.9* | -5.1% | COc1cc(Cn2c(=O)c3c(OC)c(C)cnc3n(C)c2=O)cc(OC)c1
29 | -0.1% | -0.4% | -5.3% | -59.4* | -2.2% | Cc1cccc(C(C)(C)C)c1OCCCCN1CCCC1
30 | -0.1% | 3.4% | -0.1% | -52.3* | 0.9% | Cn1cccc1C(=S)N=P(C1CCCCC1)(N1CCOCC1)N1CCOCC1
31 | 0.1% | 1.9% | -1.3% | 2.4 | 4.0% | CCCn1c(CCc2ccccc2)n[nH]c1=S
32 | -0.1% | 0.3% | -9.3% | -106.7* | -0.1% | COc1ccc(CNC(=O)CNC(=O)c2ccc(Br)o2)cc1OC

3 successive compounds from above, for reference:
cpd | B2AR arrestin | Rango complex inh | Rango release inh | CCT chaperon mod | MmCpn inh | Compound
30 | -0.1% | 3.4% | -0.1% | -52.3* | 0.9% | Cn1cccc1C(=S)N=P(C1CCCCC1)(N1CCOCC1)N1CCOCC1
31 | 0.1% | 1.9% | -1.3% | 2.4 | 4.0% | CCCn1c(CCc2ccccc2)n[nH]c1=S
32 | -0.1% | 0.3% | -9.3% | -106.7* | -0.1% | COc1ccc(CNC(=O)CNC(=O)c2ccc(Br)o2)cc1OC

The results go on:
cpd | B2AR arrestin | Rango complex inh | Rango release inh | CCT chaperon mod | MmCpn inh | Compound
33 | -0.6% | 0.1% | 0.1% | -3.2 | -0.3% | COc1cc(C(=O)NNC(=O)CNC(=O)c2ccc(Br)o2)cc(OC)c1OC
34 | -0.6% | -0.3% | 25.3% | -3.5 | -1.7% | Cc1cccc(C(=O)Nc2nnc(Cc3ccccc3)s2)c1
35 | -0.8% | -0.3% | 0.0% | -2.9 | -0.2% | O=c1c2ccccc2[nH]c(=S)n1CCCN1CCOCC1
36 | 0.0% | ? | 20.6µM*[inhibitor] | -0.5 | -2.3% | N=C1c2c(cc(=O)n3c2[nH]c2ccccc23)CN1CCN1CCOCC1
37 | 3.55µM* | 3.2% | 21.5% | -2.4 | -0.1% | O=C1C=C(NC2CCCC2)CC(c2ccccc2)C1 (centres undefined)
38 | 0.1% | -1.5% | -8.1% | -4.6 | 0.8% | CCc1ccc(NC(=O)CN(C)S(=O)(=O)c2ccc3[nH]c(=O)oc3c2)cc1
39 | 0.0% | -0.5% | -8.8% | -68.7* | 0.4% | O=C(Cc1cccs1)N1CCN(S(=O)(=O)c2ccc(Cl)c(C(F)(F)F)c2)CC1
40 | -0.3%[9.22 µM] | . | . | . | -10.3%[15.4 µM] | N#Cc1ccc2c(c1)C[C@]1(c3ccsc3)OC3=C(C(=O)OC4(CCCCC4)C3)C2O1
41 | -0.7% | 51.7µM*! | ? | -0.8 | ? | NC(=NCCCCCCN=C(N)/N=C(\N)Nc1ccc(Cl)cc1)/N=C(\N)Nc1ccc(Cl)cc1
42 | 0.5% | ? | 25.9µM* | -1.6 | -7.8% | CC(=O)c1sc2ccccc2c1OC(=O)c1ccco1
43 | -0.7% | -7.7% | ? | -2.2 | -5.4% | CC(=O)c1c(OC(=O)c2ccco2)c2ccccc2n1C
44 | . | . | . | 1.6 | . | Nc1ccn(CCCN2CCN(C(=O)C3CC3)CC2)c(=O)n1
45 | 5.8µM* | -1.2% | -8.5% | -1.8 | 1.3% | Oc1c(CN2CCOCC2)cc(COCc2ccccc2)c2cccnc12
46 | ? | ? | ? | . | 0.8% | Oc1c(CNc2ccccc2)cc(COCc2ccccc2)c2cccnc12
47 | 0.3% | . | . | . | 0.4% | Cn1c2cc([N+](=O)[O-])sc2c2cnn(Cc3ccccc3F)c(=O)c21
48 | 0.2% | 1.0% | 11.1% | -125.1* | -8.7% | O=C(CCCN1C(=O)C(c2ccccc2)Oc2cccnc21)NCCc1ccc(Cl)cc1 (centres undefined)

Single entries from the list.
#42 in B2AR arrestin has 0.5%
#45 in B2AR arrestin has 5.8µM*
#47 in MmCpn inh has 0.4%
#41 in Rango complex inh has 51.7µM*!
